# According to ChEMBL document CHEMBL1144528, “Synthesis of 8-thiabicyclo[3.2.1]octanes and their binding affinity for the dopamine and serotonin transporters” (Bioorg Med Chem, 2007):
# Species: Macaca mulatta
# Experiment: Selectivity for rhesus monkey DAT over rhesus monkey SERT
# Procedure, shortened: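 Ratio of SERT IC50 ([3H]citalopram binding) to DAT IC50 ([3H]WIN35,428 binding), both measured in monkey caudate-putamen membranes.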
smiles,measurement,value
COC(=O)C1=C(c2ccc(Cl)c(Cl)c2)CC2C[C@@H](O)[C@@H]1N2C,Ratio IC50,6
